Assay results as given in patent publication US20130053337A1, “GUANIDINYLATED AMINOGLYCOSIDE-LIPID CONJUGATES” (UNIVERSITY OF MANITOBA, priority 2010, published 2013).

System: sheep red blood cell (erythrocytes)
Test: Hemolytic assay (in vitro toxicity)
Settings: percent hemolysis
Procedure: Antibacterial activity against Gram-positive and Gram-negative microorganisms was tested via broth macrodilution tests using CLSI methodology (Zhanel et al., 2008). Stock solutions of cationic lipids in water were brought to a concentration of 512 mg/L. Organisms were subcultured and isolated on blood agar, suspended in 3 mL of Mueller-Hinton broth at the turbidity of a […], and diluted to approximately 10^5 cfu/mL before introduction into tubes containing serially diluted lipopeptide antibiotic in Mueller-Hinton broth. Activity testing against S. pneumoniae used broth supplemented with laked horse blood to give 5% horse blood in experimental tubes. Turbidity of lipopeptide solution in broth required creation of control tubes lacking organisms serving as turbidity controls. All tubes were incubated overnight for 16-20 h at 37° C. […] All experiments were performed in duplicate. In-vitro toxicity was determined using a sheep red blood cell hemolytic assay as previously described (Dathe et al., 1996).
In vitro toxicity was determined using a sheep red blood cell (erythrocytes) hemolytic assay (Dathe et al., 1996). […] Erythrocytes were washed and resuspended in Tris buffered saline. […] The samples were centrifuged and the absorbance of the supernatants measured at 540 nm. […] The toxicity was assessed by percent hemolysis.

Substance: Gentamicin [reference compound]
- hemolytic activity at 100 mg/L: <0.6%
